Assay results reported in patent US8765972B2 (priority 2009, dated 2014).

Chains of the proteins cited; added tags and fusions are not shown. Lines headed by an entry give the natural chain unless they say otherwise; changes in a name come on top.
UniProt Q9UGN5: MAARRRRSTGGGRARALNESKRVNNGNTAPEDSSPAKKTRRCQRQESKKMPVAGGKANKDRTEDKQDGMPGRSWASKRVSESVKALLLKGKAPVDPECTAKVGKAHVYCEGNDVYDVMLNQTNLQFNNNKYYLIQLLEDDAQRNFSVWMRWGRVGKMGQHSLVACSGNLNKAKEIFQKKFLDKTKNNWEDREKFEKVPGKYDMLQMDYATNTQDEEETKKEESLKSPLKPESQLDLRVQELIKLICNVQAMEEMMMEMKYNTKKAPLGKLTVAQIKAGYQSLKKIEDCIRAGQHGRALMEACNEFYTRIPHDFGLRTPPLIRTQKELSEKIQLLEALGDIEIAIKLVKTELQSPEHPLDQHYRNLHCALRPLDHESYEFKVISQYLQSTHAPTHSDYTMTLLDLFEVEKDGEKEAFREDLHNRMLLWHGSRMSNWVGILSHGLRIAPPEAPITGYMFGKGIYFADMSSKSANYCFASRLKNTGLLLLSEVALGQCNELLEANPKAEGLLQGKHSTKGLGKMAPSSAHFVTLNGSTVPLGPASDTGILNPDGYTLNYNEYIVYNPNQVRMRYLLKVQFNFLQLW

Molecular target: PARP-2 (Homo sapiens (Human), UniProt Q9UGN5)
Details: read-out: KD, PARP-2 FL (compound P1); displacement, probe compound P1 50 nM, PARP-2 250 nM; average of three independent experiments

## CN(C)CC(=O)Nc1ccc2[nH]c(=O)c3ccccc3c2c1 [PJ34, N-(6-oxo-5,6-dihydro-phenanthridin-2-yl)-N,N-dimethylacetamide, reference compound]
  Kd: < 30 nM
